# Measured values reported in US20210070687A1, “MOLECULAR WEIGHT CONTROLLING AGENT FOR RADICAL POLYMERIZATION, METHOD FOR PRODUCING POLYMER USING SAME, AND POLYMER” (SDP Global Co., Ltd., priority 2017, published 2021).
# This is a selection: effects in other tests are not listed, and their absence says nothing.
# Experiment: Solubility in water at 20° C. of the iodine compounds
# Conditions: % means % by weight
structure (smiles),measurement,value
N#CC(I)c1ccccc1 (stereo not shown),Solubility in water (20° C.),<0.1%
